# Columns and labels:
# Details in all cases: 72 h
# HepG2 [1] = experiment: relative viability EC50 (midpoint between 100% and the lowest measured viability); higher = less toxic
# Calu-3 [2] = experiment: as above
# Caco-2 [3] = experiment: as above
# Vero E6 [4] = experiment: as above
# HepG2 [5] = experiment: drug sensitivity score (DSS) for viability; higher = more toxic; extreme values may be limits of the assay
# Calu-3 [6] = experiment: as above
# Caco-2 [7] = experiment: as above
# Vero E6 [8] = experiment: as above
# HepG2 [9] = experiment: cell viability relative to DMSO; higher = less toxic
# Calu-3 [10] = experiment: as above
# Caco-2 [11] = experiment: as above
# Vero E6 [12] = experiment: as above
smiles,measurement,setting,value
COc1cc(Br)c(C[N+]2(CCOCCC3CCC4CC3C4(C)C)CCOCC2)cc1OC (stereo not drawn) [pinaverium],relative viability EC50,HepG2 [1],> 10 µM
same,relative viability EC50,Calu-3 [2],> 10 µM
same,relative viability EC50,Caco-2 [3],> 10 µM
same,relative viability EC50,Vero E6 [4],> 10 µM
same,drug sensitivity score,HepG2 [5],0
same,drug sensitivity score,Calu-3 [6],0
same,drug sensitivity score,Caco-2 [7],2.6
same,drug sensitivity score,Vero E6 [8],0
same,cell viability,HepG2 [9]; 1 nM,104%
same,cell viability,HepG2 [9]; 10 nM,105%
same,cell viability,HepG2 [9]; 100 nM,102%
same,cell viability,HepG2 [9]; 1000 nM,104%
same,cell viability,HepG2 [9]; 10000 nM,94.6%
same,cell viability,Calu-3 [10]; 1 nM,105%
same,cell viability,Calu-3 [10]; 10 nM,95.9%
same,cell viability,Calu-3 [10]; 100 nM,101%
same,cell viability,Calu-3 [10]; 1000 nM,90.8%
same,cell viability,Calu-3 [10]; 10000 nM,98%
same,cell viability,Caco-2 [11]; 1 nM,104%
same,cell viability,Caco-2 [11]; 10 nM,84.9%
same,cell viability,Caco-2 [11]; 100 nM,108%
same,cell viability,Caco-2 [11]; 1000 nM,79%
same,cell viability,Caco-2 [11]; 10000 nM,82.8%
same,cell viability,Vero E6 [12]; 1 nM,109%
same,cell viability,Vero E6 [12]; 10 nM,99.5%
same,cell viability,Vero E6 [12]; 100 nM,106%
same,cell viability,Vero E6 [12]; 1000 nM,105%
same,cell viability,Vero E6 [12]; 10000 nM,96.1%

# Reference: the supplement of paper PMC13380429
